The values that follow come from patent US20230255970A1, “COMPOSITIONS AND METHODS FOR TREATING PROLIFERATIVE DISEASES” (The Broad Institute, Inc., priority 2020, published 2023).

Structures are written as SMILES.

This assay deals with PPARG. Put plainly: PPARG reporter gene assay (FABP4-NanoLuc, RT112/84 bladder cancer cell line). Format: cell-based. As to conditions: absence or presence of Rosiglitazone. As for the experimental part:
These NanoLuc gene cloned RT112/84 cells were plated in 384-well plates at ˜10,000 cells/well. Cells were dosed with indicated compounds in the absence or presence of EC50 of PPARG agonist, rosiglitazone, using an HP D300 digital dispenser. The following day nuclei were counted for normalization (IncuCyte S3, Essen Bioscience) and the reporter activity was evaluated using the NanoGlo Luciferase Assay System (Promega). Normalized data is reported as NanoGlo arbitrary light units divided by cell number. PPARG agonist, rosiglitazone, and inhibitor, T0070907, were obtained from Tocris and included as controls.
For orientation: Reporter assays use an easily measured gene product as a stand-in for the process of interest.

`CC(C)(C)n1nc(-c2ccc(Cl)cc2)c2c(N)ncnc21` [BRD-K95785537, 1-(tert-butyl)-3-(4-chlorophenyl)-1H-pyrazolo[3,4-d]pyrimidin-4-amine]: the PPARG reporter activity result (listed as A11) is recorded as “active in the PPARG reporter assay” and the PPARG reporter activity entry (listed as PP2) is listed as “reporter activation”.
